ChEMBL document CHEMBL1833948, “Structural determinants of opioid and NOP receptor activity in derivatives of buprenorphine” (2011)

Test system: Mus musculus
Assay: Antinociceptive activity in sc dosed CD1 mouse by tail flick assay
Settings: strain CD1, Tail

Structure (SMILES): CO[C@@]12CC[C@@]3(C[C@@H]1[C@](C)(O)C(C)(C)C)[C@H]1Cc4ccc(O)c5c4[C@@]3(CCN1CC1CC1)[C@H]2O5
- A50: 1 mg/kg
